One substance from patent US20050054531A1, “N-(phosphonomethyl) glycine (glyphosate) salt, a preparation process thereof, a concentrate composition and a phytotoxic formulation comprising it, and a method to combat weeds in a crop with a formulation thereto” (priority 2003, published 2005) can be followed below.

The data set can be described thus: Physical properties of the salt (solubility, pH of solution). The format is physicochemical. To be noted: 10% w/w in water.

For “1H-1,2,4-triazole-3-yl-amine N-(phosphonomethyl)-glycine salt [Glyphosate triazolamine salt]”, the “pH of the aqueous 10% w/w solution of the salt” value was determined as 3.2.
